Results on one compound are retold here after publication PMC3744640 (Bioorganic & medicinal chemistry letters, 2013).

In experiment [1] the test system is Huh-7. In words: growth inhibition of Huh-7 liver carcinoma cells. The experiment is classed as cell-based. As to conditions: up to 100 μM.
For experiment [2], the system named is HepG2. In words: growth inhibition of HepG2 liver carcinoma cells. The experiment is classed as cell-based. As to conditions: up to 100 μM.

On to `CCC(=O)N1CCC(NC(=O)Nc2ccc(OC(F)(F)F)cc2)CC1` [TPPU], for which the “effect on cell viability (in words)” value in experiment [1] and in experiment [2] was “no observable effects on cell viability” each time.
